The chains behind the UniProt entries cited, without tags or fusion partners. Where a name states a change or a piece, a line headed by the entry shows the natural chain unless it says otherwise. Residues count along the entry.
UniProt P00519, whole entry: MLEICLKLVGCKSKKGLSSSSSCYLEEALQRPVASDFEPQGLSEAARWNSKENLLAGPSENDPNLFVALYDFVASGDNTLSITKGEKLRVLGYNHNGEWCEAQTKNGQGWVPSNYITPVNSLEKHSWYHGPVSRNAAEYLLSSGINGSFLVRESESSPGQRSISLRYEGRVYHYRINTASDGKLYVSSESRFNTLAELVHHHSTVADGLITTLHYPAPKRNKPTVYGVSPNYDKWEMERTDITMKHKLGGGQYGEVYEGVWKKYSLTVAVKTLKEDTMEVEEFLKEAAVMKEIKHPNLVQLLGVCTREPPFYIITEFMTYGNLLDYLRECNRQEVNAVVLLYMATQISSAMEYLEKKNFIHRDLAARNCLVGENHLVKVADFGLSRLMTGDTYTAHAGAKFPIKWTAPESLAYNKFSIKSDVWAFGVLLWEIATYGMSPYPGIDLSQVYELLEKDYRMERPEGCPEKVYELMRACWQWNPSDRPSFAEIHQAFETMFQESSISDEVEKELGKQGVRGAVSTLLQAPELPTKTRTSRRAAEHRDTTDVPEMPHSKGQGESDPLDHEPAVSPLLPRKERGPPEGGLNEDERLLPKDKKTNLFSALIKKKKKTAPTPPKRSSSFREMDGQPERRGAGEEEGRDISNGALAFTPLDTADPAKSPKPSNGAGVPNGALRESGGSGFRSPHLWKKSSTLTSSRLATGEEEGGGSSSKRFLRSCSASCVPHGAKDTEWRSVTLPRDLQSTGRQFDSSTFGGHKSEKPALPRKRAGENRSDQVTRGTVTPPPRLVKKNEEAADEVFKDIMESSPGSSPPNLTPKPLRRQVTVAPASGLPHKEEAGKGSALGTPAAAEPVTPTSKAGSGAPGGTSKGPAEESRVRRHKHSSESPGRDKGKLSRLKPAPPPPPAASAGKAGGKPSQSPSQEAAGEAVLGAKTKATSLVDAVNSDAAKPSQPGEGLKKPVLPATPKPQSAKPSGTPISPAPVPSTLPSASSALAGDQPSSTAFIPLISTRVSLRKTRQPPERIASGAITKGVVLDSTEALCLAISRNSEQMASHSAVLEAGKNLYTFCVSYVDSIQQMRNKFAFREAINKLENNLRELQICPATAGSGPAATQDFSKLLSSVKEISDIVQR
UniProt P00519, whole entry T315I: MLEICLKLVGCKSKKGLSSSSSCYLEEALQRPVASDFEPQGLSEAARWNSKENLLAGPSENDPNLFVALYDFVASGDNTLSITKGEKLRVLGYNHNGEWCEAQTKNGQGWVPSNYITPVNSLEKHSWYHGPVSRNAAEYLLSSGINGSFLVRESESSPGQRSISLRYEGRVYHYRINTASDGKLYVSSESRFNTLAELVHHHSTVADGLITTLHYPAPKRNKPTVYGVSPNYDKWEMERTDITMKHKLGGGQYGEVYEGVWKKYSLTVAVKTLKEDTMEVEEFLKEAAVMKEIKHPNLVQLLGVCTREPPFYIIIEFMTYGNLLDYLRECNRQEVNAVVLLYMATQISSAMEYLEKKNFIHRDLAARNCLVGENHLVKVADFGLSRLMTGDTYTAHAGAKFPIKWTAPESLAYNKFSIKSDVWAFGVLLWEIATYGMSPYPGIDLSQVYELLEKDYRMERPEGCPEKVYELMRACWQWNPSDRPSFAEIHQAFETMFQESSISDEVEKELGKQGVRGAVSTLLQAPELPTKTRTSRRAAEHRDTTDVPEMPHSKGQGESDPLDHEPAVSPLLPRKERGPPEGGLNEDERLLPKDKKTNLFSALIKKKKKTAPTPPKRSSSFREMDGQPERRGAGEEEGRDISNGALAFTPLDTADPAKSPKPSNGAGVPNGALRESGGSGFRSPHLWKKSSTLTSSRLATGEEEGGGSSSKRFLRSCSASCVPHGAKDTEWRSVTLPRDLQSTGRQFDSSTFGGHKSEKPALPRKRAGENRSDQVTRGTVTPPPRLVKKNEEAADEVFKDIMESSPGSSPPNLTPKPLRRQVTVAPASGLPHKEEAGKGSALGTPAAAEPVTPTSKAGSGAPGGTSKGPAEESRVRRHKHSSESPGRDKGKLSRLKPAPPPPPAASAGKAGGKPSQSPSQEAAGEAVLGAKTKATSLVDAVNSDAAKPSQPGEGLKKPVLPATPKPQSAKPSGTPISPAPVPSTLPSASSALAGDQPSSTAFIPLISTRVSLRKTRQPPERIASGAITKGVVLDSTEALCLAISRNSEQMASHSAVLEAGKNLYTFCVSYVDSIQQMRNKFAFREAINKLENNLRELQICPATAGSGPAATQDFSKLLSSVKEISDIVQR
UniProt P00520, 242-493 T315I limits assumed: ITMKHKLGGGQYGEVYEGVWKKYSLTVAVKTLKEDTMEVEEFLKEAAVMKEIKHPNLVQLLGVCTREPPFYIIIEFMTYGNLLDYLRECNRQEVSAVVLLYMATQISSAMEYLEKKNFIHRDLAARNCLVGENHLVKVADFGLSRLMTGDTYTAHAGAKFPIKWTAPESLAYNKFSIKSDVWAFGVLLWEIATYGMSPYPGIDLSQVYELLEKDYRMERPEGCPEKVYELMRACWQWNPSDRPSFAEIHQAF

According to US8158647B2, “Substituted pyrrolopyridines and pyrazolopyridines as kinase modulators” (SGX Pharmaceuticals, Inc., priority 2007, dated 2012):

Legend:
[1] = biological target: ABL T315I BAF3 cells (Homo sapiens, UniProt P00519, T315I, cells depend on it); assay: 96-well XTT cell survival assay, BaF3 ABL T315I; settings: read-out: CELL BIO ABL T315I BAF3 XTT (IC50), 72 hours
Method: (§1) MV4-11 and THP cells were maintained in Iscove's Modified Dulbecco's Medium supplemented with 10% fetal bovine serum (FBS) and penicillin/streptomycin, Ba/F3 cells were maintained in RPMI 1640 supplemented with 10% FBS, penicillin/streptomycin and 5 ng/ml recombinant mouse IL-3.
(§2) Compounds were tested in the following assays in duplicate.
(§3) 96-well XTT assay: Cells (e.g. BaF3 315I, M3511, or E255K cells) were grown in growth media containing various concentrations of compounds (duplicates) on a 96-well plate for 72 hours at 37° C. The starting cell number was 5000-8000 cells per well and volume was 120 μl. At the end of the 72-hour incubation, 40 μl of XTT labeling mixture (50:1 solution of sodium 3′-[1-(phenylamino-carbonyl)-3,4-tetrazolium]-bis(4-methoxy-6-nitro) benzene sulfonic acid hydrate and Electron-coupling reagent: PMS (N-methyl dibenzopyrazine methyl sulfate) were added to each well of the plate. After an additional 2-6 hours of incubation at 37° C., the absorbance reading at 405 nm with background correction at 650 nm was measured with a spectrophotometer.

[2] = biological target: purified and unphosphorylated T315I Abl kinase domain (ABL_T315I_0P) (Mus musculus, UniProt P00520, T315I); assay: c-Abl T315I (unphosphorylated kinase domain) pyruvate kinase/lactate dehydrogenase coupled enzyme assay; settings: read-out: ABL_T315I_0P (IC50), 10 μM ATP
Source text: Although the first of these examples uses the kinase domain of a mutant form of Abl T315I (“Abl T315I KD”), the kinase assays may use various forms of mutant and wild type enzymes, including, for example, the entire protein, the kinase domain, or a portion thereof (e.g. Abl Y393F). The kinases used in the assays may also be of varying phosphorylation states. In the c-Abl example, a mutant kinase at a zero phosphorylation state was used.
c-Abl Pyruvate Kinase/Lactate Dehydrogenase Coupled Enzyme Assay
In the c-Abl Pyruvate Kinase (PK)/Lactate Dehydrogenase (LDH) Coupled Assay the protein kinase dependant phosphorylation of a substrate peptide was coupled to the oxidation of NADH. The oxidation of NADH to NAD+ was detected by monitoring a decrease in absorbance at 340 nm. […]
Activity was measured by following the time-dependent loss of NADH by absorbance spectroscopy at 340 nm. The linear portion of the resulting progress curve was then analyzed by linear regression to get the activity in absorbance units/time, reported as the slope of that best fit line (moles/unit time can be calculated from using molar extinction coefficient for NADH at 340 nm, 6250M^−1 cm^−1).
Screening data was evaluated using the equation: Z′=1-[3*(σ++σ−)/|μ+−μ−|] […]

[3] = biological target: ABL P210WT BAF3 cells (Homo sapiens, UniProt P00519); assay: 96-well XTT cell survival assay, BaF3 ABL P210WT; settings: read-out: CELL BIO ABL P210WT BAF3 XTT (IC50), ABL P210 WT, 72 hours
Method: as §1, §2, §3

IC50 [2]: 10 to 100 nM
SMILES: CN(C)C(=O)C(O)c1cncc(-c2cnc3[nH]cc4c3c2OCCc2ccccc2-4)c1 (stereo not drawn)
GI50 [1]: > 1000 nM
GI50 [3]: > 1000 nM
